PubChem AID 2061109: pyroptosis screen in mouse bone marrow macrophages, one dose (5 µM).
Target pathway: NLRP3 inflammasome, triggered by LPS and nigericin. Dead cells counted by propidium iodide.
Higher is more protection: 100% equals untreated cells, 0% the stimulated control, negative values set to 0. Active call (*): above 70%. Part of the library is listed.

smiles,inhibition [%]
O=C1C(c2c(O)[nH]c3ccccc23)=Nc2ccccc21,64.2
CC(C)N=C(N)c1ccc2nc(-c3ccc(OCc4cccc(COc5ccc(-c6nc7ccc(C(N)=NC(C)C)cc7[nH]6)cc5)c4F)cc3)[nH]c2c1,0.0
O=C1C(=Nc2cccc(C(F)(F)F)c2)c2ccccc2N1c1ccccc1,14.8
O=C(C=Cc1ccc(O)c(O)c1)c1ccc(O)c(O)c1O,72.7*
CC(C)=CCC[C@@](C)(O)[C@H]1CC[C@]2(C)[C@@H]1[C@H](O)C[C@@H]1[C@@]3(C)CC[C@H](O)C(C)(C)[C@@H]3[C@@H](O)C[C@]12C,46.4
COc1cc2c(cc1OC)CN(CCc1ccc(-n3nnc(-c4cc(OC)c(OC)cc4NC(=O)c4cc(=O)c5ccccc5o4)n3)cc1)CC2,65.1
CN1CCC(CNc2cc(Cl)nn3c(-c4cc5nc(Nc6ccccc6)[nH]c5cc4F)cnc23)CC1,0.0
Cn1nccc1[C@H]1CCCC[C@@H]1Oc1cc(F)c(S(=O)(=O)Nc2ccncn2)cc1Cl,0.0
OCc1ccc(-c2nn(Cc3ccccc3)c3ccccc23)o1,83.2*
COCCC(=O)N1C[C@@H]2C[C@H](C1)c1ccc(NC(=O)c3ccc(-c4ccccc4)cc3)c(=O)n1C2,0.0
COc1cc2nccc(Nc3cccc(Oc4ccccc4)c3)c2cc1OC,75.5*
O=C(O)CC(CC(=O)O)C(=O)O,0.0
Cc1nc(-c2cc(C(=O)N3CCC(c4ccc(C#N)cc4)CC3)c(C)cc2C2CCC2)n[nH]1,0.0
CC(C1CC1)n1cnc2c(NCc3cccc(C(F)(F)F)c3)nc(NCCN(C)C)nc21,16.6
C=CCc1ccc(O)c(-c2ccc(O)c(CC=C)c2)c1,0.0
CCOC(=O)[C@H](CCc1ccccc1)N[C@@H](C)C(=O)N1C(=O)N(C)C[C@H]1C(=O)O.Cl,0.0
CS(=O)(=O)CCC#N,67.1
CCCn1c(=O)c2[nH]c(C34CCC(CCC(=O)O)(CC3)CC4)nc2n(CCC)c1=O,0.0
Cl.O=S(=O)(NCCN1CCNCC1)c1ccc(NC2CCCCC2)c(NCc2ccccc2)c1,0.0
Cl.O=c1cc(N2CCOCC2)oc2c(-c3ccccc3)cccc12,36.3
CCCc1c(OCCCOc2cc(NC(=O)c3nnn[n-]3)c(C)cc2Cl)ccc(C(C)=O)c1O.[Na+],0.0
Cc1c(OCC(F)(F)F)ccnc1C[S@](=O)c1nc2ccccc2[nH]1,32.5
CCCCCNC1=C(c2cn(C)c3ccccc23)C(=O)N(C)C1=O,0.0
Nc1nnc(Sc2ncc([N+](=O)[O-])s2)s1,0.0
O=C(O)c1ccc(C2(NC(=O)c3cccc4ccn(Cc5ccc(C(F)(F)F)cc5)c34)CC2)cc1,0.0
CC[C@@H](Oc1nc(Oc2cccc(-c3cccc(CN)c3)c2)c(F)cc1F)C(=O)O,0.0
O=C(OC(C(F)(F)F)C(F)(F)F)N1CCN(Cc2ccc(C(F)(F)F)cc2N2CCCC2)CC1,22.7
FC(F)(F)c1ccccc1-c1nc(NCc2cccs2)c2ccccc2n1,34.2
Cc1cc(S(C)(=O)=O)c(S(C)(=O)=O)cc1C(=O)N=C(N)N,0.0
CCCC(CCC)C(=O)[O-].[Na+],0.0
O=C1c2c(O)cc(O)cc2O[C@H](c2cc(O)c(O)c(O)c2)[C@H]1O,0.0
CNc1nc(Nc2cnc(C#N)c(O[C@@H]3CCCNC3)c2)ncc1-c1cnn(C)c1,0.0
COc1ccc(CCNCC(O)COc2cccc(C)c2)cc1OC.Cl,0.0
O=C1Nc2ccccc2/C1=C/c1ccccn1,67.7
CC[N+]1(C/C2=C/CCCCCC2)CCC(NC(=O)C2c3cc(Cl)ccc3Oc3ccc(Cl)cc32)CC1.[I-],0.0
C#CCNC(=O)C(=O)c1c(C)c(C(=O)Nc2ccc(F)c(F)c2)n(C)c1C,0.0
O=C1Nc2ccc(S(=O)(=O)Nc3ccc(O)c(Cl)c3)c3cccc1c23,73.8*
N#C[C@@H]1C[C@@H]2C[C@@H]2N1C(=O)[C@@H](N)C12CC3CC(CC(O)(C3)C1)C2.O,0.0
[Cl-].[Cs+],62.9
O=C(NCC1(N2CCN(c3ccccc3)CC2)CCOCC1)c1cccnc1Sc1ccccc1,0.0
COc1cc2c(cc1OC)[C@@H](Cc1ccc(Oc3cc(C[C@@H]4c5cc(OC)c(OC)cc5CCN4C)ccc3O)cc1)N(C)CC2,66.3
C=C(Cc1ccccc1Cl)C(=O)OCC,4.0
C=CCc1cc(OC)c(O[C@@H](C)[C@H](O)c2ccc(O)c(OC)c2)c(OC)c1,71.6*
CC(N)=NCc1cccc(CN)c1.Cl.Cl,53.7
CN1CCc2cc(Nc3ncc(C(F)(F)F)c(NCc4ccn[nH]4)n3)ccc2C1,0.0
O=C(Nc1ccc(Oc2cc(C(F)(F)F)cc(C(F)(F)F)c2)cc1)c1c(F)cccc1I,46.8
CC1CNCCN1S(=O)(=O)c1cccc2cnccc12,0.0
COC(=O)CN(c1ccc(CN(c2ccc(OCc3ccc(C)cc3)c(C(=O)OC)c2)S(=O)(=O)Cc2ccccc2)cc1)S(C)(=O)=O,68.4
CCCCc1nc(Cl)c(CO)n1Cc1ccc(-c2ccccc2-c2nnn[n-]2)cc1.[K+],0.0
Cl.Cl.O=C(NCCCNc1nc(Nc2cccc(CN3CCOCC3)c2)ncc1C1CC1)C1CCC1,0.0
CC(=O)OCC1=CO[C@@H](OC(=O)CC(C)C)[C@H]2C1=C[C@H](OC(=O)CC(C)(C)OC(C)=O)[C@]21CO1,99.7*
CNC(=O)c1cc(Oc2ccc(NC(=O)Nc3ccc(Cl)c(C(F)(F)F)c3)cc2)ccn1,0.0
CCCCc1nc(Cl)c(CO)n1Cc1ccc(-c2ccccc2-c2nn[nH]n2)cc1,0.0
NS(=O)(=O)c1ccc(Cc2c(-c3cccc(-c4ccccc4)c3)nn(-c3nc(C(=O)O)cs3)c2CC2CC2)cc1,79.6*
N[C@@H](CCCCNC(=O)OCc1ccc([N+](=O)[O-])cc1)C(=O)N1CCCC1,1.7
COc1cc(/C=C/c2ccccc2)oc(=O)c1,52.9
C[C@@H]1COCCN1c1cc(-c2ccnn2C)c2ccnc(-c3ccn[nH]3)c2n1,0.0
CN(C)C/C=C/C(=O)Nc1cccc(C(=O)Nc2ccc(Nc3nccc(-c4cccnc4)n3)cc2)c1,0.0
CN1CCc2cc(Nc3ncc(C4CC4)c(NCCCNC(=O)C4CCC4)n3)ccc2C1.Cl.Cl,0.0
CC(C)(O)CC(=O)NCCn1ccc2ncnc(Nc3ccc(Oc4cccc(C(F)(F)F)c4)c(Cl)c3)c21,0.0
CCN(CC)C(=O)[C@@]1(c2ccccc2)C[C@H]1CN.Cl,0.0
COc1ccc(NC(=O)c2n[nH]c3ccc(-c4cncc(CN5CCCCC5)c4)cc23)cn1,59.1
O=C(CNC(=O)c1cccc(C(F)(F)F)c1)N[C@@H]1CCN(Cc2ccc(Cl)cc2)C1,0.0
O=C(NCCN1CCC2(CC1)C(=O)NCN2c1ccccc1)c1ccc2ccccc2c1,0.0
COc1cc2oc(=O)ccc2c(OC)c1C[C@@H](O)C(C)(C)O,30.2
CNc1nc(Nc2ccc(C(=O)N3CCOCC3)cc2OC)nc2[nH]cc(Cl)c12,0.0
Cn1c(=O)cc(N2CCC[C@@H](N)C2)n(Cc2ccccc2C#N)c1=O,70.7*
CCc1c(O)cc(O)c(C(=O)c2ccc(OCCN3CCOCC3)c(OC)c2)c1CC(=O)N(CCOC)CCOC,16.2
C#CC(=O)N(c1ccc(OC)cc1OC)C(C(=O)NCC(=O)OCC)c1cccs1,38.2
Cl.NCCCOc1cc2ccccc2cc1C(=O)NCCOc1cc2ccccc2cc1C(=O)Nc1ccc(Cl)cc1O,72.2*
COc1cccc(-c2cc(=O)c3ccccc3o2)c1N,0.0
C[C@@H](O)CCCCn1c(=O)c2c(ncn2C)n(C)c1=O,0.0
COc1cc(C)c2c(=O)cc(C[C@@H](C)O)oc2c1[C@@H]1O[C@H](CO)[C@@H](O)[C@H](O)[C@H]1OC(=O)/C=C/c1ccc(O)cc1,0.0
Nc1ccc(-c2cc(Cl)c(Cl)c3[nH]c4c(c23)CN(C(=O)CO)CC4)cn1,50.5
CC1(C)C=Cc2c(-c3c4c(c5ccccc5c3O)OC(C)(C)C=C4)c(O)c3ccccc3c2O1,43.3
Nc1cc(C(F)F)c(-c2nc(N3[C@@H]4CC[C@H]3COC4)nc(N3[C@@H]4CC[C@H]3COC4)n2)cn1,50.1